Experimental data published in patent publication US20180110824A1.
Like-named read-outs stand apart in the source and are kept apart here.

Sequences of proteins named here, by UniProt entry; tags and fusion partners are left off.
UniProt Q92847, whole entry: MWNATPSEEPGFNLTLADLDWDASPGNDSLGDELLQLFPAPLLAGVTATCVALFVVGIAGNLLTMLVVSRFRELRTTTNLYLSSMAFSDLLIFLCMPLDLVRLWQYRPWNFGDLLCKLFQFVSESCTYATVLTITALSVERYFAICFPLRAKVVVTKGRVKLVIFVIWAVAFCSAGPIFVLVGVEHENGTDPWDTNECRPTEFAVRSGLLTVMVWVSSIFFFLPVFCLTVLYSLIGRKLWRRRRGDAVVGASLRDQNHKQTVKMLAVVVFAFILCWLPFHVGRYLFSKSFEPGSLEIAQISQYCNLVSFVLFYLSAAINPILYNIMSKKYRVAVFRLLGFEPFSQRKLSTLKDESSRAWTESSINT
UniProt O43193, whole entry: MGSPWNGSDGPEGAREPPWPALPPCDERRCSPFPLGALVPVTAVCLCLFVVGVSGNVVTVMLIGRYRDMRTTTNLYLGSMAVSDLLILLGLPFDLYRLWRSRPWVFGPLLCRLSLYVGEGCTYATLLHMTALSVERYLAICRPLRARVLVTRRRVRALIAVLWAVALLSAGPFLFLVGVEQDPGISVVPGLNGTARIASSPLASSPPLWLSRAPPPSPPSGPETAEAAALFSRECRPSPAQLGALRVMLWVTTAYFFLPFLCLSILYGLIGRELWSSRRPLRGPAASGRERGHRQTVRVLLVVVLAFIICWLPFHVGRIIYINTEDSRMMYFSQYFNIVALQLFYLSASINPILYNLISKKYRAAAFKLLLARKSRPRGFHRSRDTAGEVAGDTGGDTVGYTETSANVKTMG

Legend:
[1] = molecular target: human growth hormone secretagogue receptor (hGHS-R1a) (Homo sapiens, UniProt Q92847); experiment: Competitive radioligand binding assay (ghrelin receptor), [125I]-ghrelin displacement on GHS-R/HEK 293 membranes; details: for binding potency: linear (not cyclized) analogues of compounds 10 and 133
[2] = molecular target: human ghrelin receptor (hGHS-R1a) (Homo sapiens, UniProt Q92847); format: cell-based; details: Table 4, functional (agonist) activity, TFA salts unless otherwise noted
motilin receptor = motilin receptor (Homo sapiens, UniProt O43193); experiment: Selectivity for the ghrelin receptor versus the motilin receptor
[3] = Table 3B, binding activity at the human ghrelin receptor
[4] = Binding activity at the human ghrelin receptor, [125I]-ghrelin displacement
[5] = Table 4, TFA salts unless otherwise noted
[6] = read-out: Binding Activity at the Human Ghrelin Receptor (Ki), [125I]-ghrelin displacement, GHS-R/HEK 293 membranes, class symbols

CC1C(=O)NC(Cc2ccc(F)cc2)C(=O)NCCCc2ncccc2OCCNC(C2CC2)C(=O)N1C (stereo not drawn)
Ki [1, 3]: 0.01 to 0.1 µM

CCC[C@@H](C(=O)N(C)CC(=O)N[C@H](Cc1ccccc1)C(N)=O)N(CCOc1ccccc1CCCN)C(C)=O
Ki [1, 4]: > 10 µM | binding potency [1]: lack of binding potency

CC(C)C1NCCOc2ccccc2/C=C/CNC(=O)C(Cc2ccccc2)NC(=O)C(C)N(C)C1=O (stereo not drawn)
Ki [1, 4]: 0.1 to 1 µM

CC[C@H](C)[C@@H]1NCCOc2ccc(C(=O)O)cc2CCCNC(=O)[C@@H](Cc2ccccc2)NC(=O)[C@@H](C)N(C)C1=O
EC50 [2]: > 1 µM | Selectivity (motilin receptor): 100/1 | Ki [1, 5]: 0.1 to 1 µM | Ki [1, 6]: 0.1 to 1 µM

CC[C@H](C)[C@@H]1NCCCc2ccccc2/C=C/CNC(=O)[C@H](Cc2cccc(Cl)c2)NC(=O)C2(CCCC2)NC1=O
EC50 [2]: 0.001 to 0.1 µM | Ki [1, 3]: 0.01 to 0.1 µM | Ki [1, 5]: 0.01 to 0.1 µM

CC[C@H](C)[C@@H]1NCCCCC=CCCNC(=O)[C@H](Cc2cccc(Cl)c2)NC(=O)C2(CCCC2)NC1=O
Ki [1, 3]: 0.1 to 1 µM

CCC(C)C1NCCOc2ccccc2CCCNC(=O)C(Cc2ccccc2)NC(=O)C(CO)N(C)C1=O (stereo not drawn)
Ki [1, 6]: 0.1 to 1 µM

CC(C)CC1NCCOc2ccccc2/C=C/CNC(=O)C(Cc2c[nH]cn2)NC(=O)C2(CCCC2)NC1=O (stereo not drawn)
Ki ([1]; Table 3D): > 10 µM

CC(C)C[C@@H]1NCc2ccc(cc2)CCNC(=O)[C@H](Cc2ccccc2)NC(=O)C2(CCCC2)NC1=O
Ki [1, 4]: > 10 µM

CC(C)C[C@@H]1NCCC#CCCNC(=O)[C@H](Cc2ccccc2)NC(=O)C2(CCCC2)NC1=O
Ki [1, 4]: > 10 µM

CC[C@H](C)[C@@H]1NCCOc2ccccc2CCCNC(=O)[C@@H](Cc2c[nH]cn2)NC(=O)[C@@H](C)N(C)C1=O
Ki [1, 3]: 0.1 to 1 µM

CC(=O)N(CCOc1ccccc1CCCN)[C@@H](CC(C)C)C(=O)NC1(C(=O)N[C@@H](Cc2ccccc2)C(N)=O)CCCC1
Ki [1, 4]: > 10 µM | binding potency [1]: lack of binding potency

CCC[C@@H]1NCc2cccc(c2)CCNC(=O)[C@@H](Cc2ccccc2)NC(=O)CN(C)C1=O
Ki [1, 4]: > 10 µM

CC(C)CC1NCCOc2ccccc2/C=C/CNC(=O)C(Cc2ccccn2)NC(=O)C2(CCCC2)NC1=O (stereo not drawn)
Ki [1, 6]: > 1 µM

CCC(C)[C@@H]1NCCOc2ccccc2CCCNC(=O)[C@@H](Cc2ccccc2)NC(=O)[C@H](CO)N(C)C1=O (stereo partly drawn)
Ki [1, 6]: 0.1 to 1 µM

CCC(C)C1NCCOc2ccccc2/C=C/CNC(=O)C(Cc2cccc(C(F)(F)F)c2)NC(=O)C2(CCCC2)NC1=O (stereo not drawn)
Ki [1, 3]: 0.1 to 1 µM

CCC(C)C1NCCOc2ccccc2CCCNC(=O)C(Cc2ccccc2)NC(=O)C(C(C)C)N(C)C1=O (stereo not drawn)
Ki [1, 4]: > 1 µM

CC(C)C[C@@H]1NCCOc2ccccc2CCCNC(=O)[C@H](Cc2ccccc2)NC(=O)C2(CCCC2)NC1=O
EC50 ([2]; tested form: formate): 0.1 to 1 µM | Ki ([1]; Binding activity at the human ghrelin receptor, [125I]-ghrelin displacement, tested form: formate): 0.1 to 1 µM | Ki ([1]; Table 4, TFA salts unless otherwise noted, tested form: formate): 0.01 to 0.1 µM

C[C@@H]1C(=O)N[C@H](Cc2ccc(F)cc2)C(=O)NC[C@H]2C[C@H]2c2ccccc2OCCN[C@@H](C2CC2)C(=O)N1C (single isomer, unassigned)
EC50 [2]: 0.1 to 1 µM | Selectivity (motilin receptor): 450/1 | Ki [1, 3]: 0.01 to 0.1 µM | Ki [1, 5]: 0.01 to 0.1 µM

CC(C)C[C@@H]1NCCOc2cccnc2CCCNC(=O)[C@H](Cc2ccccc2)NC(=O)C2(CCCC2)NC1=O
Ki [1, 4]: 1 to 10 µM

CCC(C)C1NCCCCCCCCNC(=O)C(Cc2ccccc2)NC(=O)C(C)N(C)C1=O (stereo not drawn)
EC50 [2]: 0.1 to 1 µM | Ki [1, 5]: 0.1 to 1 µM

CC(C)C[C@@H]1NCCOc2ccccc2/C=C/CNC(=O)[C@H](Cc2cccnc2)NC(=O)C2(CCCC2)NC1=O
Ki [1, 6]: > 1 µM

C[C@@H]1C(=O)N[C@H](Cc2ccc(F)cc2)C(=O)NCC2CC2c2ccccc2OCCN[C@@H](C2CC2)C(=O)N1C (stereo partly drawn)
Ki [1, 3]: 0.01 to 0.1 µM

CC[C@H](C)[C@@H]1NCCOc2ccccc2/C=C/CNC(=O)[C@H](CO)NC(=O)C2(CCCC2)NC1=O
Ki ([1]; Table 3D): > 10 µM

CC(C)CC1NCc2cccc(c2)CCNC(=O)C(Cc2ccccc2)NC(=O)C2(CCCC2)NC1=O (stereo not drawn)
Ki [1, 4]: > 10 µM

CC(C)CC1NCCOc2ccccc2/C=C/CNC(=O)C(Cc2ccncc2)NC(=O)C2(CCCC2)NC1=O (stereo not drawn)
Ki [1, 6]: > 10 µM

CCC(C)C1NCCOc2ccccc2/C=C/CNC(=O)C(Cc2cc(F)cc(F)c2)NC(=O)C2(CCCC2)NC1=O (stereo not drawn)
Ki [1, 3]: 0.1 to 1 µM

CCC(C)[C@@H]1NCCOc2ccccc2/C=C/CNC(=O)[C@H](Cc2ccccc2)NC(=O)C2(CCCC2)NC1=O (stereo partly drawn)
Ki [1, 6]: 0.01 to 0.1 µM

CCOC(=O)CC[C@@H]1NC(=O)C2(CCCC2)NC(=O)[C@H](CC(C)C)NCCOc2ccccc2/C=C/CNC1=O
Ki [1, 4]: > 10 µM

CCC(C)[C@@H]1NCCOc2ccccc2CCCNC(=O)[C@@H](Cc2ccccc2)NC(=O)[C@H](C(C)CC)N(C)C1=O (stereo partly drawn)
Ki [1, 4]: 0.1 to 1 µM

CC[C@H](C)[C@@H]1NCCOc2ccccc2/C=C/CNC(=O)[C@H](COC)NC(=O)C2(CCCC2)NC1=O
Ki ([1]; Table 3D): > 10 µM

CCC(C)C1NCCOc2ccccc2CCCNC(=O)C(Cc2ccccc2)NC(=O)C(C(C)CC)N(C)C1=O (stereo not drawn)
Ki [1, 4]: > 10 µM

CC(C)C[C@@H]1NCCOc2ccccc2CCCNC(=O)CNC(=O)C2(CCCC2)NC1=O
Ki [1, 4]: > 10 µM

CCC(C)C1NCCOc2ccccc2/C=C/CNC(=O)C(COCc2ccccc2)NC(=O)C(C)(C)NC1=O (stereo not drawn)
Ki [1, 3]: 0.1 to 1 µM

CC[C@H](C)[C@@H]1NCCOc2ccccc2/C=C/CNC(=O)[C@H](COCc2ccccc2)NC(=O)C(C)(C)NC1=O
Ki [1, 3]: 0.1 to 1 µM
